{"source": "patent US8735417B2", "about": "“Aminopyrimidines as Syk inhibitors” (Merck Sharp & Dohme Corp., priority 2009, dated 2014)", "note": "pIC50: −log10 of the molar value."}
{"molecular_target": "recombinant human GST-SYK (Homo sapiens, UniProt P43405)", "experiment": "Homogeneous Time-Resolved Fluorescence (HTRF) assay for the recombinant human SYK enzyme", "conditions": "read-out: rhSYK Activity (IC50); recombinant human GST-SYK 5 pM, ATP 25 μM, 10-dose titration", "protocol": "(§1) Homogeneous Time-Resolved Fluorescence (HTRF) Assay for the Recombinant Human SYK Enzyme:\n(§2) A recombinant GST-hSYK fusion protein was used to measure potency of compounds to inhibit human SYK activity. The recombinant human GST-SYK (Carna Biosciences #08-176) (5 pM final concentration) was incubated with various concentrations of the inhibitor diluted in DMSO (0.1% final concentration) for 10 minutes at room temperature in 15 mM Tris-HCl (pH 7.5), 0.01% tween 20, 2 mM DTT in 384 well plate format. To initiate the reaction the biotinylated substrate peptide (250 nM final concentration) that contains the phosphorylation site for SYK was added with magnesium (5 mM final concentration) and ATP (25 μM final concentration). Final volume of the reaction was 10 μL. Phosphorylation of the peptide was allowed to proceed for 45′ at room temperature. To quench the reaction and detect the phosphorylated product, 2 nM of a Europium-atiti-phosphotyrosine antibody (Perkin Elmer #AD0161) and 70 nM SA-APC (Perkin-Elmer #CR130-100) were added together in 15 mM Tris pH 7.5, 40 mM EDTA, 0.01% tween 20. Final volume of the quenching solution was 10 μL. The resulting HTRF signal was measured after 30 minutes on a EnVision (Perkin-Elmer) reader using a time-resolved fluorescence protocol. IC50 was determined following 10-dose titration (10 μM to 0.508 nM) and four parameter logistic curve fitting using the Merck Assay Data Analyzer. The rhSYK activity (IC50) is expressed as +++ (100 nM or less), ++ (between 100 and 1000 nM), +(between 1 and 10 μM)."}
{"smiles": "OCC1C(O)CCCN1c1ncc(-c2cccc(Nc3nccc(C(F)(F)F)n3)c2)s1", "note": "(centres unmarked)", "pIC50": "> 7.00"}
{"smiles": "OCCC1CN(c2ncc(-c3cccc(Nc4nccc(C(F)(F)F)n4)c3)s2)CCO1", "note": "(centres unmarked)", "pIC50": "> 7.00"}
{"smiles": "CN(C)C1(CNc2ncc(-c3cccc(Nc4nccc(C(F)(F)F)n4)c3)s2)CCSC1", "note": "(centres unmarked)", "pIC50": "> 7.00"}
{"smiles": "Cc1ncc(CN)c(Nc2ncc(-c3cccc(Nc4nccc(C(F)(F)F)n4)c3)s2)n1", "pIC50": "> 7.00"}
{"smiles": "O=C1CCCN1CCCNc1ncc(-c2cccc(Nc3nccc(C(F)(F)F)n3)c2)s1", "pIC50": "> 7.00"}
{"smiles": "CCN1CCC[C@H]1CNc1ncc(-c2cccc(Nc3nccc(C(F)(F)F)n3)c2)s1", "pIC50": "6.00 to 7.00"}
{"smiles": "CCN1CCC[C@@H]1CNc1ncc(-c2cccc(Nc3nccc(C(F)(F)F)n3)c2)s1", "pIC50": "> 7.00"}
{"smiles": "OC1CN(c2ncc(-c3cccc(Nc4nccc(C(F)(F)F)n4)c3)s2)CCC1c1ccccc1", "note": "(centres unmarked)", "pIC50": "6.00 to 7.00"}
{"smiles": "O=C1NCCN1c1ncc(-c2cccc(Nc3nccc(C(F)(F)F)n3)c2)s1", "pIC50": "> 7.00"}
{"smiles": "FC(F)(F)c1ccnc(Nc2cccc(-c3cnc(NC[C@@H]4CCCO4)s3)c2)n1", "pIC50": "> 7.00"}
{"smiles": "OCC(Nc1ncc(-c2cccc(Nc3nccc(C(F)(F)F)n3)c2)s1)C1CCOCC1", "note": "(centres unmarked)", "pIC50": "> 7.00"}
{"smiles": "FC(F)(F)c1ccnc(Nc2cccc(-c3cnc(N4CCCC(C(F)(F)F)C4)s3)c2)n1", "note": "(centres unmarked)", "pIC50": "6.00 to 7.00"}
{"smiles": "OC[C@H](COCc1ccccc1)Nc1ncc(-c2cccc(Nc3nccc(C(F)(F)F)n3)c2)s1", "pIC50": "6.00 to 7.00"}
{"smiles": "O=C(O)CC1c2ccccc2CCN1c1ncc(-c2cccc(Nc3nccc(C(F)(F)F)n3)c2)s1", "note": "(centres unmarked)", "pIC50": "> 7.00"}
{"smiles": "FC(F)(F)c1ccnc(Nc2cccc(-c3cnc(N4CC=CC4)s3)c2)n1", "pIC50": "> 7.00"}
{"smiles": "CC(C)(O)C1CCCN(c2ncc(-c3cccc(Nc4nccc(C(F)(F)F)n4)c3)s2)C1", "note": "(centres unmarked)", "pIC50": "> 7.00"}
{"smiles": "CN1CCN(c2ncc(-c3cccc(Nc4nccc(C(F)(F)F)n4)c3)s2)CCC1=O", "pIC50": "> 7.00"}
{"molecular_target": "recombinant human GST-SYK (Homo sapiens, UniProt P43405)", "experiment": "Homogeneous Time-Resolved Fluorescence (HTRF) assay for the recombinant human SYK enzyme", "conditions": "read-out: rhSYK Activity (IC50); recombinant human GST-SYK 5 pM, ATP 25 μM, 10-dose titration; tested form: formate", "protocol": "as §1, §2"}
{"smiles": "Cc1cc(Nc2nccc(C(F)(F)F)n2)cc(-c2cnc(NCc3ncnn3C)s2)c1", "pIC50": "> 7.00"}
{"smiles": "Cc1cc(Nc2nccc(C(F)(F)F)n2)cc(-c2cnc(N3CCC4(C3)OCCO4)s2)c1", "pIC50": "> 7.00"}
{"smiles": "Cc1cc(Nc2nccc(C(F)(F)F)n2)cc(-c2cnc(NCCCC3C=NNC3=O)s2)c1", "note": "(centres unmarked)", "pIC50": "> 7.00"}
{"smiles": "COC(=O)CCc1ccc(CNc2ncc(-c3cc(C)cc(Nc4nccc(C(F)(F)F)n4)c3)s2)cc1", "pIC50": "6.00 to 7.00"}
{"smiles": "Cc1cc(Nc2nccc(C(F)(F)F)n2)cc(-c2cnc(N3CCCC(Cn4ccnc4)C3)s2)c1", "note": "(centres unmarked)", "pIC50": "> 7.00"}
{"smiles": "Cc1cc(Nc2nccc(C(F)(F)F)n2)cc(-c2cnc(NCC3CCCN(C)C3)s2)c1", "note": "(centres unmarked)", "pIC50": "> 7.00"}
{"smiles": "Cc1cc(Nc2nccc(C(F)(F)F)n2)cc(-c2cnc(NCCC3CCNCC3)s2)c1", "pIC50": "> 7.00"}
{"smiles": "Cc1cc(Nc2nccc(C(F)(F)F)n2)cc(-c2cnc(N3CCCC(c4nc(C)no4)C3)s2)c1", "note": "(centres unmarked)", "pIC50": "6.00 to 7.00"}
{"smiles": "Cc1cc(Nc2nccc(C(F)(F)F)n2)cc(-c2cnc(NCc3ccc(CN4CCOCC4)cc3)s2)c1", "pIC50": "5.00 to 6.00"}
{"molecular_target": "recombinant human GST-SYK (Homo sapiens, UniProt P43405)", "experiment": "Homogeneous Time-Resolved Fluorescence (HTRF) assay for the recombinant human SYK enzyme", "conditions": "read-out: rhSYK Activity (IC50); recombinant human GST-SYK 5 pM, ATP 25 μM, 10-dose titration; tested form: free base", "protocol": "as §1, §2"}
{"smiles": "Cc1cc(Nc2nccc(OCC3CCOC3)n2)cc(-c2cnc(N3CCCNC(=O)C3)s2)c1", "note": "(centres unmarked)", "pIC50": "> 7.00"}
{"smiles": "FC(F)(F)c1ccnc(Nc2cccc(-c3cnc(N4CCc5ccccc5C4)s3)c2)n1", "pIC50": "6.00 to 7.00"}
{"smiles": "Cc1cc(Nc2ncccn2)cc(-c2cnc(N3CCCNC(=O)C3)s2)c1", "pIC50": "> 7.00"}
